In US20040116293A1, “Enhanced herbicide composition” (priority 2002, published 2004):

System: Xanthi-nc tobacco
Experiment: Potentiation rating of Aatrex Nine-O (atrazine) herbicidal activity on Xanthi-nc tobacco relative to equimolar salicylic acid
Assay type: in vivo, Nicotiana tabacum (tobacco)
Description: In all examples, deionized ultra-pure water was used in preparing solutions. Spray solutions were used as soon as possible after mixing.
In all herbicide applications, plants were sprayed with a sufficient volume to insure good coverage, to the point of runoff of the spray solution. […] For all treatments containing both an herbicide and a salicylate or SAR inducer, these materials were mixed and applied in a single spray solution (commonly known as a tank mix). After spraying, plants were moved to the greenhouse and arranged in randomized complete blocks. Plants were evaluated for herbicidal effects (phytotoxicity) after spraying by assessing damage according to percent leaf area affected. All the data were subject to an analysis of variance, and the mean separations were determined with Duncan's multiple range test at α=0.05.

Cc1ccc(O)c(C(=O)O)c1 [5-Methylsalicylic acid]
Potentiation of the herbicidal activity of atrazine compared with salicylic acid (in words): no potentiation
